Antibody variant affinities, Ab-14 heavy chain, assay 1

From the AlphaSeq antibody data of Engelhart et al. 2022 (doi:10.1038/s41597-022-01779-4), copy in the FLAb collection.

Target peptide (SARS-CoV-2 spike, HR2 region): PDVDLGDISGINAS

The variants keep the light chain, the linker and the frameworks of Ab-14 (scFv order VH, a (GGGGS)3 linker, VL).
VH: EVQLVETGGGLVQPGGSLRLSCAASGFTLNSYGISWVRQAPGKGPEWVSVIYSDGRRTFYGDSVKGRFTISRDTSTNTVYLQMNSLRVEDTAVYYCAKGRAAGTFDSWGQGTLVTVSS
VL: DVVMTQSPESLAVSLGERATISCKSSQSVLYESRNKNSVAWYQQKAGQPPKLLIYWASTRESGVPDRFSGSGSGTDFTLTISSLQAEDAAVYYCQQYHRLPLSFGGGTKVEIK

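Variants in AAYL49 differ from the parent at up to three CDR positions; double and triple changes were sampled at random. The assay is AlphaSeq: two haploid yeast populations carry antibody and antigen on their surface. Binding brings cells together so that they mate, and sequencing counts the barcode pairs among the diploids. Each replicate has its own calibration line, from reference interactions of the BCL2 family. The assay was run in three technical replicates.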

Variants are written as CDR1, CDR2 and CDR3 of the heavy chain (limits as in the source). Parent: GFTLNSYGIS, VIYSDGRRTFYGDSVK, GRAAGTFDS. Scale: log10 of Kd in nM, estimated from mating counts; low values are strong binders. Replicates are averaged; those with no signal do not enter the mean. A pair that was not seen in any replicate is written "no signal"; this usually means weak binding, but a binder can also be missed.

"mean, log10 nM",seen in,CDR-H1,CDR-H2,CDR-H3
4.19,1/3,GFTLNSYEIS,VIYSDGLRTFYGDSVK,GRAAGTRDS
3.97,1/3,GFTLNSYGIS,VIYIDGRRTFYDDSVK,GRAAGTGDS
5.06,3/3,GFTLCSYGIS,DIYSDGRRTFYGDSVK,GRADGTFDS
no signal,0/3,GFTLNSYGIS,VIYSSGRRIFYGDSVK,GRAAGTNDS
3.64,3/3,CFTLNSYGIS,VIYSDGRRTFYTDSVK,GRAAGTFCS
4.59,3/3,GFTLDSYGIS,VIYSDRRRTFYGDSVK,GRAAGTFNS
4.31,1/3,GFTKNSYGDS,VIYSDGRRTFYGDSVK,GRAAGTFDS
3.21,1/3,SFTLNSYGIS,VIYSDGRRTFYGDSTK,GRAAGTRDS
no signal,0/3,WFTLNSYGIS,VIYSKGRRTSYGDSVK,GRAAGTFDS
no signal,0/3,GFTLNSYATS,VIYSDGRRTFYGDSVK,GRAAGTFDG
3.66,1/3,VFVLNSYGIS,VIYSDGRRTFAGDSVK,GRAAGTFDS
no signal,0/3,GFTHNLYGIS,VIYSDGRRTFYGDSVK,GRAAGTFDK
2.56,1/3,GFYANSYGIS,VIESDGRRTFYGDSVK,GRAAGTFDS
2.70,1/3,GPTLNSYGIS,VIYSDGRRTFYGDHVK,GRAAWTFDS
no signal,0/3,GFTLNSYGIK,VIYSLGRRTFYGDSVK,GRAAGTFDS
no signal,0/3,GMTLNVLGIS,VIYSDGRRTFYGDSVK,GRAAGTFDS
no signal,0/3,GFTLNSYGIS,VIYSDGPRTHYGDSVR,GRAAGTFDS
no signal,0/3,GFTLNSYGIS,VIKSDGRRTFYGDSVK,GSAAGLFDS
2.36,3/3,GFTLNSYGIS,VIYSDGDRTFYGDSVA,GRAAGTFDP
3.34,1/3,GTTLNSYGIS,VIYSDGRRTFYGWSVK,GRAAGTFAS
4.01,3/3,GFTLNSWGIS,VIYSDGRRTFYGDSVK,GRAQGTFDS
no signal,0/3,GFTLNSYGIS,VMYSKGRRTFYGDSVK,GRAAGTFDS
3.50,1/3,GFTLNSYGIS,VIYSDGDRTFYGDSVK,GRASGPFDS
no signal,0/3,GFTLNSVGIS,VIYSDGRRTFIGDSVK,GRAAGTFDS
3.42,1/3,RFTLNSYGIS,SIYSDGRRTFYGDSVK,GRAAGTIDS
4.15,1/3,GFTLNSYGIS,VGYSDGRRTFYGDSVK,GRKAGTFDS
no signal,0/3,GFTLNSKGIS,VIYSDGRRTFYGDSVK,VRAACTFDS
5.30,3/3,GFTLNSYGVS,VIYSWGRRTFYNDSVK,GRAAGTFDS
2.99,1/3,GFTLNSYGIS,VIYSDGRRTFYGDSSK,GIAAGTFDE
no signal,0/3,GFTLNSYGIS,VIYSDKRRIFYGDSVK,HRAAGTFDS
no signal,0/3,GFTLNNIGIS,VIYSDGRRTFSGDSVK,GRAAGTFDS
3.69,1/3,GNTLNRYGIS,VIYSDGRRFFYGDSVK,GRAAGTFDS
no signal,0/3,GFTVSSSGIS,VIYSDGRRTFYGDSVK,GRAAGTFDS
2.32,3/3,GFTLNSYGIS,VMYSDGRRTTYGDSVK,GREAGTFDS
no signal,0/3,GFTLNSYGLS,VIYSDGRCTFYGDSVK,GRAAGTFDS
4.43,1/3,GFTLNSYGIS,VQYSDGTRTFYGDSVK,GRYAGTFDS
no signal,0/3,GFTPISYGIS,VIYSDGRRTFYGDSAK,GRAAGTFDS
no signal,0/3,QFTLNSKGIS,VIYSDGRRTFYGDSVK,GRAAGTFDD
2.66,3/3,GFTLNIYGIS,VIYSDGRRYYYGDSVK,GRAAGTFDS
1.33,3/3,GFTLNVYTIS,VIYSDGRRTFYNDSVK,GRAAGTFDS
4.42,1/3,GFTLNSYGIS,VIYSDGFRTFMGDSVK,GLAAGTFDS
5.76,2/3,FFTLNSYGIS,VIYSDGRRDFYGDSVK,GRAAGTFDS
no signal,0/3,GFTLNSYGVS,VIYSDGRMVFYGDSVK,GRAAGTFDS
4.72,1/3,DFTLNSYGIS,VIYSDGRRGFYGDSVK,TRAAGTFDS
3.66,1/3,GFTLNSYGFS,VIYSDGRRTFYGDSQK,GRAAGTADS
4.39,1/3,GFTLYSYGIG,VIYSDGRRTFYMDSVK,GRAAGTFDS
5.15,1/3,GFTLNSYGIS,VIYSMGRRWFYGDSVK,GRAAGSFDS
no signal,0/3,GFTLNSYGIS,VIYSDGRRTFGGDSVK,GRAANTFDS
no signal,0/3,GFTLNSYGIS,VIYSDGTRTFYGDSVK,GDAAGTFWS
no signal,0/3,GFTLNSYGPS,VCYSDGRKTFYGDSVK,GRAAGTFDS
3.93,2/3,GFTLNSYGIK,VIYSDGRSTFYGDSVK,GRAAGTFQS
no signal,0/3,GFTLCSQGIS,VIYSDGHRTFYGDSVK,GRAAGTFDS
no signal,0/3,GFTLNSYGIS,VIDSDGKRTFYGDSVK,GRSAGTFDS
3.07,1/3,GCTLNSYGIS,VIYSDGRRTFSGDSVK,GRAAQTFDS
no signal,0/3,GFTLNSYGIS,VIYMWGRRTFYGDSVK,GRAPGTFDS
0.47,3/3,GFVLNSYGIS,VIYSDGRRTFYGDSVK,GRAALTFDS
3.88,1/3,GFTLNSYGIS,VIYSDDRRTFYGDSVK,GRAPGTFDI
4.93,1/3,GFTLNSYCIS,VIYDDGRRTFMGDSVK,GRAAGTFDS
2.33,2/3,GFTLNSYGSS,VIYSDGRRTFYGDSVK,GRAAITFSS
1.66,3/3,GTTLNSYGIS,VIYSDGERTFYGDSVK,GRAAGTFDS
no signal,0/3,GFTLNSEGIV,VIYSDGRRTFYGDSVL,GRAAGTFDS
no signal,0/3,GFTKNSYGIS,VIYSDTRRTFYGDSVK,GRAAFTFDS
no signal,0/3,GFTLNSPGIS,VIYSDGRRTFYGDSVK,CRAAGTFDS
no signal,0/3,GFTLNSYGFS,VIYSDGRRTFYGDSVK,GRAHGTFDS
no signal,0/3,GFTLNSYGIS,VDTSDGRRTFYGDHVK,GRAAGTFDS
no signal,0/3,GFTLNSYGWS,VIYCDGRRTFYGISVK,GRAAGTFDS
4.53,1/3,GFTLNSSGIS,VIYSDGRRTFLGDSVK,GRAAGTFDV
3.81,1/3,GFTLNSYGWQ,VIYSDGMRTFYGDSVK,GRAAGTFDS
no signal,0/3,GFTLNSYGIS,VIYSDNRRTFYGDSVK,GRRAGTVDS
2.32,3/3,GFTLNSYGIS,VIYSDGRRTFYQDSVQ,GRAAGTFDS
no signal,0/3,GFTLNSYGIS,VIQSDGRRCFYGDSLK,GRAAGTFDS

Top 9 of the variants detected in all replicates, tightest first:

CDR-H1,CDR-H2,CDR-H3,"mean, log10 nM",seen in
GFVLNSYGIS,VIYSDGRRTFYGDSVK,GRAALTFDS,0.47,3/3
GFTLNVYTIS,VIYSDGRRTFYNDSVK,GRAAGTFDS,1.33,3/3
GTTLNSYGIS,VIYSDGERTFYGDSVK,GRAAGTFDS,1.66,3/3
GFTLNSYGIS,VMYSDGRRTTYGDSVK,GREAGTFDS,2.32,3/3
GFTLNSYGIS,VIYSDGRRTFYQDSVQ,GRAAGTFDS,2.32,3/3
GFTLNSYGIS,VIYSDGDRTFYGDSVA,GRAAGTFDP,2.36,3/3
GFTLNIYGIS,VIYSDGRRYYYGDSVK,GRAAGTFDS,2.66,3/3
CFTLNSYGIS,VIYSDGRRTFYTDSVK,GRAAGTFCS,3.64,3/3
GFTLNSWGIS,VIYSDGRRTFYGDSVK,GRAQGTFDS,4.01,3/3

As a blank, each scFv also met three strains without target: over library AAYL49, 15% of these pairings were detected, typically at 4.06 and seldom below 2.83. In this assay the parent's reference entry averaged 0.65; its copy inside this library read 4.11 (one replicate of three).